The results in this text go back to PubChem BioAssay AID2025 (NMMLSC, 2009).

The entries are a selection whose mix differs from that of the whole data set. The source made the active and inactive calls.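 How the source made its calls: active means percent response vs DMSO below 50%; inconclusive means fewer than 70 events counted for the yeast strain; inactive means the rest.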

This assay is described as follows: compounds altering RPL19A-GFP fluorescence, TOR branch – cell-based, S. cerevisiae, multiplex flow cytometry, MLPCN, primary screen (AID 2025).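 Further: median channel GFP fluorescence of the barcoded RPL19A-GFP strain; ratio of sample median GFP to plate DMSO average so 100% = DMSO; lower means less RPL19A-GFP as with rapamycin TOR inhibition.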 The note with it: S. cerevisiae RPL19A-GFP strain, 3 h, at 10 µM, active compounds read low. For orientation: A flow cytometer gives signals particle by particle.
Take `CCc1nc2c(n1)c1c(non1O)c1c2no[n+]1[O-]`: the percent response vs DMSO is inactive: 109%.

As for `Cc1ccc(NP(=O)(Oc2ccccc2)Oc2ccccc2)nc1`, the percent response vs DMSO was inactive: 102%.

Take `CC(=O)N1C2C3N(C(C)=O)C1C1N(C(C)=O)C(C(N1C(C)=O)N3C(C)=O)N2C(C)=O`: the percent response vs DMSO is inactive: 102%.

Take `O=[N+]([O-])c1cccc2n[nH]nc12`: the percent response vs DMSO is inactive: 102%.

As to `COc1ccc(C2=NCC(CBr)S2)cc1` (configuration not stated), the percent response vs DMSO is inactive: 103%.

Take `CC1CCN(C(=O)Oc2c(Cl)cc(Cl)c3cccnc23)CC1`: the percent response vs DMSO is inactive: 96.8%.

As to `CN(C)C(=O)OCCc1n(C)cc[n+]1C`, the percent response vs DMSO is inactive: 101%.

`CC(C)=N/N=C(\N)N[N+](=O)[O-]`: the percent response vs DMSO was inactive: 101%.

Regarding `CCN(/C(=N/P(=O)(N1CCOCC1)N1CCOCC1)N1CCOCC1)c1ccc(OC)cc1`, the percent response vs DMSO was inactive: 98.6%.

On to `C[N+]1=C2C=CC=CC=C2SC12C([N+](=O)[O-])=CC([N+](=O)[O-])=C[C-]2[N+](=O)[O-]` (configuration not stated), for which the percent response vs DMSO was inactive: 93.9%.

As for `Nc1ccc([As](=O)(O)c2ccc(N)cc2)cc1`, the percent response vs DMSO is inactive: 96.1%.

Take `c1nnnn1CCn1cnnn1`: the percent response vs DMSO is inactive: 96.8%.

With `O=P(Nc1nccs1)(c1ccccc1)c1ccccc1`, the percent response vs DMSO was inactive: 100%.

For `CC(C)C(=O)NC(Sc1ccccc1)C(Cl)(Cl)Cl` (configuration not stated), the percent response vs DMSO is inactive: 101%.

Consider `C[C@H]1OP(=O)(Oc2ccccc2)[C@H](O)[C@H](O)[C@H]1N=[N+]=[N-]` (some centres not stated), for which the percent response vs DMSO was inactive: 97.8%.

In the case of `O=P(Nc1nc2ccccc2s1)(c1ccccc1)c1ccccc1`, the percent response vs DMSO is inactive: 104%.

As to `CN(C)C1(CNC(=O)c2ccc(Cl)c(S(N)(=O)=O)c2)CCCCC1`, the percent response vs DMSO was inactive: 103%.

Take `O=P(Nc1ccccn1)(c1ccc(Br)cc1)c1ccc(Br)cc1`: the percent response vs DMSO is inactive: 103%.

With `O=C(OC1CN2CCC1CC2)c1cccc(Cl)c1` (configuration not stated), the percent response vs DMSO is inactive: 98.8%.

For `C(Cc1nn[nH]n1)Cc1nn[nH]n1`, the percent response vs DMSO is inactive: 101%.

With `Nc1ccc([As](=O)(O)c2ccc([N+](=O)[O-])cc2)cc1`, the percent response vs DMSO is inactive: 102%.

Regarding `O=[As](O)(c1ccccc1)c1ccc(O)cc1`, the percent response vs DMSO was inactive: 94.7%.

For the compound `CC(=O)NC(SC(=S)N(C)C)C(Cl)(Cl)Cl` (configuration not stated), the percent response vs DMSO is inactive: 90.2%.

Take `O=[N+]([O-])c1ncn(CCn2cnc([N+](=O)[O-])n2)n1`: the percent response vs DMSO is inactive: 97.9%.

As for `O=[N+]([O-])c1ccc(O)c(/C=N/Nc2ccc([N+](=O)[O-])cc2[N+](=O)[O-])c1`, the percent response vs DMSO was inactive: 100%.

On to `Cc1ccc(NP(=O)(Oc2cccc(C)c2)Oc2cccc(C)c2)nc1`, for which the percent response vs DMSO was inactive: 106%.

As to `CCOC(=O)NC(Sc1ccccc1)C(Cl)(Cl)Cl` (configuration not stated), the percent response vs DMSO was inactive: 99.9%.

Regarding `c1ccc(-c2nn[nH]n2)c(-c2nn[nH]n2)c1`, the percent response vs DMSO is inactive: 96.8%.

For `O=C(NC1CCS(=O)(=O)C1)NP(=S)(Oc1ccccc1)Oc1ccccc1` (configuration not stated), the percent response vs DMSO was inactive: 91.7%.

On to `CCNC(=S)/N=C(\N)N[N+](=O)[O-]`, for which the percent response vs DMSO was inactive: 99.4%.

As to `CN(C)C(=O)Oc1noc2ccccc12`, the percent response vs DMSO was inactive: 95.5%.

For the compound `CC(NC(=O)COC(=O)C(O)(c1ccccc1)c1ccccc1)c1ccccc1` (configuration not stated), the percent response vs DMSO was inactive: 101%.

As for `Cc1ccccc1OP(=O)(Nc1ccccn1)Oc1ccccc1C`, the percent response vs DMSO was inactive: 96.5%.

For `CCC(=O)N1C2C3N(C(=O)CC)C1C1N(C(=O)CC)C(C(N1C(=O)CC)N3C(=O)CC)N2C(=O)CC`, the percent response vs DMSO was inactive: 103%.

Take `O=C(OC1CN2CCC1CC2)c1ccccc1` (configuration not stated): the percent response vs DMSO was inactive: 106%.

For `CC(=O)NC(SC(=S)N(CC(C)C)CC(C)C)C(Cl)(Cl)Cl` (configuration not stated), the percent response vs DMSO was inactive: 101%.

On to `Cc1ccc(OP(=O)(Nc2ccccn2)Oc2ccc(C)cc2)cc1`, for which the percent response vs DMSO was inactive: 95.6%.

Take `COC(=O)c1cc2c(s1)N=C(c1ccccc1)N(C)P2(=O)N1CCOCC1` (configuration not stated): the percent response vs DMSO is inactive: 104%.

In the case of `CC(C)(C)C(=O)NC(Sc1ccccc1)C(Cl)(Cl)Cl` (configuration not stated), the percent response vs DMSO is inactive: 92.3%.

In the case of `CCOc1ccc(C2=NCC(CBr)S2)cc1` (configuration not stated), the percent response vs DMSO is inactive: 96.3%.

As for `O=P1(Nc2nc3ccc(Cl)cc3s2)COc2ccccc2O1` (configuration not stated), the percent response vs DMSO was inactive: 97.6%.

For `CC(=O)Nc1ccc(Oc2c([N+](=O)[O-])cc([N+](=O)[O-])cc2[N+](=O)[O-])cc1`, the percent response vs DMSO is inactive: 98.3%.

With `CC(=O)Nc1ccc([As](=O)(O)O)c(O)c1`, the percent response vs DMSO is inactive: 104%.

As to `C[C@H]1OP(=O)(Oc2ccccc2)C[C@@H]2O[C@@H]21` (some centres not stated), the percent response vs DMSO was inactive: 100%.

As to `C[C@@H]1C=CCP(=O)(Oc2ccccc2)O1` (some centres not stated), the percent response vs DMSO was inactive: 101%.

For the compound `Cc1ccccc1CN(C)C(=O)COC(=O)C(O)(c1ccccc1)c1ccccc1`, the percent response vs DMSO was inactive: 98.1%.

As for `CC(=O)c1ccc(N2CC2c2ccncc2)cc1` (configuration not stated), the percent response vs DMSO is inactive: 97.3%.
